This passage reports IC50 results from patent US8980838B2, “Cyclized peptidomimetic small molecule inhibitors of the WDR5 and MLL1 interaction” (The Regents of the University of Michigan, priority 2011, dated 2015).

One may read the IC50 as the concentration at which inhibition is half-maximal.

In the assay the target is WDR5 (Homo sapiens, UniProt P61964). As to the kind of experiment: fluorescence-polarization based competitive binding assay. The note with it: read-out: IC50, binding affinity to WDR5; FP competitive binding; WDR5Δ23 4 nM, tracer 0.6 nM, five hours incubation; Table 3 series; tested form: trifluoroacetate.

On to `CC[C@@H]1NC(=O)[C@H](CCCNC(=N)N)NC(=O)[C@@](C)(NC(=O)C(C)C)CCCCCNC1=O`, for which the IC50 was less than 1000 nM.
